From patent US6545011B2, “Substituted 4,9-dihydrocyclopenta[imn]phenanthridine-5-ones, derivatives thereof and their uses” (Guilford Pharmaceuticals Inc., priority 2000, dated 2003)

The chains behind the UniProt entries cited, without tags or fusion partners.
UniProt P09874, whole entry: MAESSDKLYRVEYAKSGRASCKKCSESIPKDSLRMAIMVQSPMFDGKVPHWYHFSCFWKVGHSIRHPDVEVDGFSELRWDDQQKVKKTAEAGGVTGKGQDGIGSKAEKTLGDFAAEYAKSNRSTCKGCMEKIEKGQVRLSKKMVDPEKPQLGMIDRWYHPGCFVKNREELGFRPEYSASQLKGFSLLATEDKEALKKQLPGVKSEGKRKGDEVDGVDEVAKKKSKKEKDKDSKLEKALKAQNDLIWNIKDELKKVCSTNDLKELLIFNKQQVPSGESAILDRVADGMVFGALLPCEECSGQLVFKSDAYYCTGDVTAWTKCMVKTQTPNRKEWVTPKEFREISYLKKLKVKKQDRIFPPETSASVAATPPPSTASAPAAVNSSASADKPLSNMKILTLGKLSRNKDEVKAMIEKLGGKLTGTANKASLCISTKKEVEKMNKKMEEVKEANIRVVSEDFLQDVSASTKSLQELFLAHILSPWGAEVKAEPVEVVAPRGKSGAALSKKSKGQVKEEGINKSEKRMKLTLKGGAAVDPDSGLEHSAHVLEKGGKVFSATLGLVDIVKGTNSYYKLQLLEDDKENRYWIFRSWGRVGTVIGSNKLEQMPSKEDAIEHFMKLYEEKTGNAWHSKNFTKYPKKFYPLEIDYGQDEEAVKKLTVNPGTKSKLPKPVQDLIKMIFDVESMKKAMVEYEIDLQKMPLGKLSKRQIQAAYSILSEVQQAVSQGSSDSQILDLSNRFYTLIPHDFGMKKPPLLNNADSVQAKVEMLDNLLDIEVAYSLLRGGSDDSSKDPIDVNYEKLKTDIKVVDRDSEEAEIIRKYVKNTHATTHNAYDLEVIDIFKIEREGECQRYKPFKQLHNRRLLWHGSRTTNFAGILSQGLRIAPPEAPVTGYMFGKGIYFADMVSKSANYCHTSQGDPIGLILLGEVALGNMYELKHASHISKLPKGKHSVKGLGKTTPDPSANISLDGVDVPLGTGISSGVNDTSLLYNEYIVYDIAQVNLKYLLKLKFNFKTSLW

Molecular target: purified recombinant human PARP (Homo sapiens, UniProt P09874)
Test: PARP enzyme assay (IC50), [3H]NAD incorporation
Settings: read-out: Inhibition IC50, approximate values, tested form: di-Na salt
Description: A convenient method to determine IC50 of a PARP inhibitor compound is a PARP assay using purified recombinant human PARP from Trevigan (Gaithersburg, Md.), as follows: The PARP enzyme assay is set up on ice in a volume of 100 microliters consisting of 100 mM Tris-HCl (pH 8.0), 1 mM MgCl2, 28 mM KCl, 28 mM NaCl, 0.1 mg/ml of DNase I activated herring sperm DNA (Sigma, Mo.), 3.0 micromolar [3H]nicotinamide adenine dinucleotide (470 mci/mmole), 7 micrograms/ml PARP enzyme, and various concentrations of the compounds to be tested. The reaction is initiated by incubating the mixture at 25° C. After 15 minutes of incubation, the reaction is terminated by adding 500 microliters of ice cold 20% (w/v) trichloroacetic acid. The precipitate formed is transferred onto a glass fiber filter (Packard Unifilter-GF/B) and washed three times with ethanol. After the filter is dried, the radioactivity is determined by scintillation counting.
Using the PARP assay described above, approximate IC50 (μM) values were obtained as shown in the following Table III, which also include specific embodiments of the compounds of the present invention: […]

- IC50: 2600 nM
Compound: O=c1[nH]c2ccc(S(=O)(=O)O)c3c2c2c(cc(S(=O)(=O)O)cc12)C3
